Assay results taken from ChEMBL document CHEMBL4152205, “Therapeutic journery of nitrogen mustard as alkylating anticancer agents: Historic to future perspectives” (2018).
pIC50: −log10 of the molar value.

Assays:
U-87 MG = test: Cytotoxicity against human U87 cells assessed as reduction in cell viability after 3 days by MTT assay; conditions: u-87mg atcc
A549 = test: Cytotoxicity against human A549 cells assessed as reduction in cell viability after 3 days by MTT assay
IMR-32 = test: Cytotoxicity against human IMR32 cells assessed as reduction in cell viability after 3 days by MTT assay
COLO 205 = test: Cytotoxicity against human COLO205 cells assessed as reduction in cell viability after 3 days by MTT assay

Measured: pIC50

O=C(O)CCCc1ccc(N(CCCl)CCCl)cc1
4.57 to 4.73: all assays above
